Target: T1, Histone deacetylase-like amidohydrolase (Alcaligenes sp. (strain DSM 11172) (Bordetella sp. (strain FB188)), UniProt Q70I53)
T1 sequence (Q70I53 whole entry): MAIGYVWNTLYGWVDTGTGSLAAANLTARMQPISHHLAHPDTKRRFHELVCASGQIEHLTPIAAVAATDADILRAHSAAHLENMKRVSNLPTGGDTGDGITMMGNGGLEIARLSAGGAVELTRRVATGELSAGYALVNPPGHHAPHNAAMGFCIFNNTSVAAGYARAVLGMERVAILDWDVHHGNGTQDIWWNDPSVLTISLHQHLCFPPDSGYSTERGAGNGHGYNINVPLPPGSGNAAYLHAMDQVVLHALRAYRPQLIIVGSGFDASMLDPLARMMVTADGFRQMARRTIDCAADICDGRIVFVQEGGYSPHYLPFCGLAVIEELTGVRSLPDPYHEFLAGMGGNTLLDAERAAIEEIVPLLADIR
Assay: Inhibition of Bordetella FB188 HDAH using Boc-L-Lys(acetyl)-MCA as substrate by fluorogenic enzymatic assay
Summary of the method: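 Two-step fluorogenic assay with purified recombinant HDAH. Substrate (20 µM final) is deacetylated, then trypsin releases 7-amino-4-methylcoumarin (ex 390, em 460 nm). […] Ki derived from IC50 by Cheng–Prusoff.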

O=C(CCCCCCC(=O)Nc1ccccc1)NO [VORINOSTAT]
Kd: 300 nM

Reference: ChEMBL document CHEMBL1932952, “Synthesis and biochemical analysis of 2,2,3,3,4,4,5,5,6,6,7,7-dodecafluoro-N-hydroxy-octanediamides as inhibitors of human histone deacetylases” (Bioorg Med Chem, 2012)
